# Assay results from patent US20250049869A1, “USE OF AURICULARIA AURICULA TOTAL POLYSACCHARIDE OR MONOMERIC POLYSACCHARIDE IN PREPARATION OF PD-L1 INHIBITOR” (priority 2023, published 2025).
# The chains behind the UniProt entries cited, without tags or fusion partners. Residues count along the entry.
# UniProt Q9NZQ7, 19-290, species assumed: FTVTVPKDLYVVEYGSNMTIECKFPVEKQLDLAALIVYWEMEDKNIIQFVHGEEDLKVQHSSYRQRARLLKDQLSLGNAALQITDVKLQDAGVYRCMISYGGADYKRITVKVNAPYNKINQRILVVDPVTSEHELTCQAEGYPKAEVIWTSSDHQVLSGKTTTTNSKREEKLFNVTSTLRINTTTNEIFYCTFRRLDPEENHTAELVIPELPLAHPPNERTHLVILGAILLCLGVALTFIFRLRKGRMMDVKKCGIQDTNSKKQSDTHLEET
# Molecular target: PD-L1 protein (Homo sapiens, UniProt Q9NZQ7)
# Test: SPR affinity analysis with PD-L1 protein (Biacore 8K, CM5 chip)
# Assay type: binding
# Conditions: PD-L1 coupled to CM5 chip, PBS buffer, read-out: dissociation constant (KD) with PD-L1
# Excerpt: Biacore 8K high-throughput molecular interaction analysis system, CM5 chip, and phosphate buffered saline (PBS) buffer as the mobile phase of the instrument were used in the whole process of the surface plasmon resonance experiment. The PD-L1 was coupled to the activated CM5 chip using an amino coupling kit. […] The ME-2 polysaccharide solution with different concentrations was passed through the coupling channel and the blank channel at a certain velocity by using the running buffer. After 60 s of dissociation, the chip was regenerated with 10 mM glycine-HCl (pH2.0) and 3 M NaCl at a flow rate of […] for 30 s. Biacore Evaluation 3.1 software and GraphPad Prism 8.0 software were used to analyze the data and obtain the response curve.
# The regeneration curve decreased obviously, and it had the characteristics of fast bonding and fast dissociation.
substance,measurement,value
"PD-1: programmed cell death protein 1, natural binding partner of PD-L1, measured by SPR as comparison",Kd,533 nM
